Experimental data published in ChEMBL document CHEMBL3603781, “Discovery of substituted (4-phenyl-1H-imidazol-2-yl)methanamine as potent somatostatin receptor 3 agonists” (Bioorg Med Chem Lett, 2015).

Protein sequences, listed by entry. Tags and fused reporters are not part of them. Lines headed by an entry give the natural chain unless they say otherwise; changes in a name come on top.
UniProt P32745: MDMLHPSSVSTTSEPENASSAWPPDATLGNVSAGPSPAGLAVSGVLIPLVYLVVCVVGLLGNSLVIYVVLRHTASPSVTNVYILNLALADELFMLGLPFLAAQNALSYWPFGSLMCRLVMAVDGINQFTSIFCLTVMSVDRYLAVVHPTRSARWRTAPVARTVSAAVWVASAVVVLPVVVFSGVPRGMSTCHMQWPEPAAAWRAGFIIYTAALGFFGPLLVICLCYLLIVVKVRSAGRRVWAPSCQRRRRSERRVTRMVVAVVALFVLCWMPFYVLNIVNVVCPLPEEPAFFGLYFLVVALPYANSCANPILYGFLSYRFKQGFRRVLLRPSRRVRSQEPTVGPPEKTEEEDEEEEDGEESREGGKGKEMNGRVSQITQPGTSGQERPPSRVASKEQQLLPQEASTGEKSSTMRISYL

Biological target: Somatostatin receptor type 3 (Homo sapiens, UniProt P32745)
Assay: Agonist activity at human SSTR3 expressed in CHO cells assessed as intracellular cAMP level after 45 mins by time-resolved fluorescence assay relative to control
Format: functional, cell-based

Row | Activity [%] | SMILES
1 | 23 | Cc1ccc(-c2c[nH]c(C3(NCc4c[nH]c5ccccc45)CC3)n2)cc1
2 | 63 | Cc1ccc(-c2c[nH]c(C3(NCc4cncnc4)CCCC3)n2)cc1
